From ChEMBL document CHEMBL4665844, “HDAC-Bax Multiple Ligands Enhance Bax-Dependent Apoptosis in HeLa Cells” (J Med Chem, 2020)

Chains of the proteins cited; added tags and fusions are not shown.
UniProt Q07812, whole entry: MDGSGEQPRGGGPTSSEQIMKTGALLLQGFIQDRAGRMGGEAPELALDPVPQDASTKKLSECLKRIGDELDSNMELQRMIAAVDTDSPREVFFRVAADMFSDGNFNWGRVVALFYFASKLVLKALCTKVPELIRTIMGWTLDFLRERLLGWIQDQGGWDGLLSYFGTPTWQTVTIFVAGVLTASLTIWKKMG

Target: Apoptosis regulator BAX (Homo sapiens, UniProt Q07812)
Test: Activation of BAX (unknown origin)

Q: `O=C1/C(=N\Nc2nccs2)C(c2ccccc2)=NN1c1nc(-c2ccccc2)cs1` was tested. Which IC50 did it give?
A: 250 nM
